{
  "source": "patent US20230390282A1",
  "about": "“TREATMENT OF EYE CONDITIONS” (The University of Birmingham, priority 2020, published 2023)",
  "key": {"[1]": {"system": "pChk2 T68, pChk2 T383, pChk1", "assay": "Western blot of pChk2/pChk1 in L4/L5 DRG after DC injury", "format": "in vivo, rat", "conditions": "28 days/4 weeks after injury; for Chk2 phosphorylation (pChk2 T68, pChk2 T383) after DC injury: small molecules intrathecal (BML-277 5 μg, Prexasertib 3 μg), shRNA plasmid intra-DRG with PEI", "method": "(§1) DC crush injury model. Rats were injected subcutaneously with 0.05 ml Buprenorphine to provide analgesia prior to surgery and anaesthetised using 5% of Isoflurane in 1.8 ml/l of O2 with body temperature and heart rate monitored throughout surgery.\n(§2) Chk2 inhibition studies in the DC crush injury model. […] Chk1i (LY2603618) was used at equimolar concentrations for each experiment. Rats were killed in a rising concentration of CO2 at either 28 d for immunohistochemistry and western blot analyses or 6 weeks for electrophysiology and functional tests.\n(§3) Sham treated animals (partial laminectomy but no DC injury) were also included as additional controls. At 4 weeks after DC injury and treatment, ipsilateral L4/L5 DRG pairs were harvested, total RNA extracted using Trizol reagent as described above and knock down of Chk1 and Chk2 mRNA knockdown using quantitative qRT-PCR, as described above. Contralateral L4/L5 DRG pairs were treated the same as above and used as controls. […] This included western blot to determine pChk1 and pChk2 levels after shChk2 treatment. For these experiments, animals were randomly assigned to DC+shNull and DC+shChk2 groups each comprising n=6 rats and repeated on 3 independent occasions (total n=18 rats/group). […] Animals were allowed to survive for 6 weeks with functional testing (tape sensing+removal and ladder crossing tests) performed pre- and post-DC injury as described below. Electrophysiology was performed on the same set of animals at 6 weeks after DC injury and treatment as described below.\n(§4) Protein extraction and western blot analysis."}, "dorsal column (DC) axons": {"system": "dorsal column (DC) axons", "assay": "T8 dorsal column (DC) crush model of spinal cord injury: axon regeneration, electrophysiology, sensory and locomotor tests", "format": "in vivo, rat", "conditions": "for negative CAP amplitudes: all stimulation intensities; for time after treatment at which mean tape sensing/removal times are restored to normal: sensory function after DC injury", "method": "as §1, §2, §3\nQuantification of DC axon regeneration. […] Briefly, the number of intersections of GAP43^+ fibers were counted through a dorsoventral orientated line in reconstructed serial parasagittal sections of the cord (serial 50μm-thick sections ˜70-80 sections/animal; n=10 rats/treatment)). Axon number was then represented as % of fibers counted at 4 mm above the lesion, where the DC was intact.\nElectrophysiology. […] Briefly, with the experimenter masked to the treatment conditions, silver wire electrodes applied single-current pulses (0.05 ms) through a stimulus isolation unit in increments (0.2, 0.3, 0.6, 0.8, and 1.2 mA) at L1-L2 and compound action potentials (CAP) were recorded at C4-C5 along the surface of the midline spinal cord. Spike 2 software was then used to calculate CAP amplitudes between the negative deflection after the stimulus artifact and the next peak of the wave. CAP area was calculated by rectifying the negative CAP component (full-wave rectification) and measuring its area. At the different stimulation intensities. […] Representative CAP traces are processed output data from Spike 2 software.\nFunctional tests. […] Briefly, animals (n=6 rats/group, 3 independent repeats; total n=18/group) received training to master traversing the horizontal ladder for 1w before functional testing. Baseline parameters for all functional tests were established 2-3 d before injury. Animals were then tested 2 d after DC lesion+treatment and then weekly for 6 weeks. Experiments were performed by 2 observers (treatment conditions were masked) in the same order, the same time of day and each test performed for 3 individual trials. Horizontal ladder test: This tests the animals locomotor function and is performed on a 0.9-meter-long horizontal ladder with a diameter of 15.5 cm and randomly adjusted rungs with variable gaps of 3.5-5.0 cm. The total number of steps taken to cross the ladder and the left and right rear paw slips being were recorded and the mean error rate was then calculated by dividing the number of slips by the total number of steps taken."}, "[2]": {"system": "Chk2 phosphorylation (Thr68, Thr383)", "conditions": "DRGN cultures, western blot", "method": "(§5) Rat DRGN and retinal cultures. […] Cells were cultured for 4 days in a humidified chamber at 37° C. and 5% CO2 before being subjected to quantitative RT-PCR or immunocytochemistry, as described below.\nas §4"}, "RGC [3]": {"system": "RGC"}, "RGC [4]": {"system": "RGC", "assay": "Rat retinal cultures: RGC survival and neurite outgrowth", "format": "cell-based", "conditions": "4 days", "method": "as §5"}, "[5]": {"system": "dorsal root ganglion neuron (DRGN) cultures", "assay": "Primary adult rat DRGN cultures: survival and neurite outgrowth", "format": "cell-based", "conditions": "4 days in culture", "method": "as §5"}, "γH2Ax": {"system": "γH2Ax", "conditions": "retina, 30 days after induction of glaucoma"}, "[6]": {"conditions": "compared to all other treatment groups"}, "[7]": {"conditions": "Chk2i: 3 weeks after injury, others over the whole 6 weeks"}},
  "note": "Entries after “also recorded” stand apart in the source; their conditions may differ.",
  "data": [
    {"smiles": "NC(=O)c1ccc2[nH]c(-c3ccc(Oc4ccc(Cl)cc4)cc3)nc2c1", "note": "[BML-277]", "values": [
      {"measurement": "Chk2 phosphorylation (pChk2 T68, pChk2 T383) after DC injury", "setting": "[1]", "result": "optimally suppresses"},
      {"measurement": "mean CAP area at different stimulation intensities", "setting": "dorsal column (DC) axons; 6 weeks after DC injury", "result": "improved significantly"},
      {"measurement": "negative CAP amplitudes", "setting": "dorsal column (DC) axons; 6 weeks after DC injury", "result": "restored"},
      {"measurement": "time after treatment at which mean tape sensing/removal times are restored to normal", "setting": "dorsal column (DC) axons", "result": 4, "unit": "weeks"}
    ]},
    {"smiles": "COc1cc2nc(-c3cc(F)ccc3O)nc(N[C@@H]3CNC[C@H]3C(C)(C)O)c2cc1OC", "note": "[Chk2i]", "values": [
      {"measurement": "Chk2 phosphorylation (Thr68, Thr383)", "setting": "[2]", "result": "suppressed"},
      {"measurement": "RGC axon regeneration", "setting": "RGC [3]; 24 days after ONC", "result": "significant RGC axon regeneration"},
      {"measurement": "RGC survival", "setting": "RGC [3]; rat, in vivo", "result": "> 90", "unit": "%"},
      {"measurement": "Chk1 phosphorylation (pChk1 levels) after DC injury", "setting": "[1]", "result": "No changes"},
      {"measurement": "Chk2 phosphorylation (pChk2 T68, pChk2 T383) after DC injury", "setting": "[1]", "result": "abolished"},
      {"measurement": "% RGC with neurites", "setting": "RGC [4]; [6]", "result": "enhanced"},
      {"measurement": "mean neurite length of RGC", "setting": "RGC [4]; [6]", "result": "enhanced"},
      {"measurement": "RGC survival in culture", "setting": "RGC [4]; compared to control NBA, CNTF or Chk1i", "result": "significantly enhanced"},
      {"measurement": "% DRGN with neurites", "setting": "[5]", "result": 82, "unit": "%"},
      {"measurement": "DRGN survival", "setting": "[5]; NBA-treated controls 40%", "result": 90, "unit": "%"},
      {"measurement": "mean neurite length", "setting": "[5]; controls 12 μm", "result": 520, "unit": "μm"},
      {"measurement": "levels of γH2Ax", "setting": "γH2Ax", "result": "attenuates"},
      {"measurement": "CAP area improvement compared to the vehicle or Chk1i treatments", "setting": "dorsal column (DC) axons; 6 weeks after DC injury", "result": "> 90", "unit": "%"},
      {"measurement": "CAP area, within x% of that observed for sham-treated control groups", "setting": "dorsal column (DC) axons; 6 weeks after DC injury", "result": "≤ 20", "unit": "%"},
      {"measurement": "mean CAP area at different stimulation intensities", "setting": "dorsal column (DC) axons; 6 weeks after DC injury", "result": "restored"},
      {"measurement": "negative CAP amplitudes", "setting": "dorsal column (DC) axons; 6 weeks after DC injury", "result": "increased; also recorded: restored"},
      {"measurement": "ladder crossing test (locomotor function) outcome", "setting": "dorsal column (DC) axons; [7]", "result": "indistinguishable from sham-treated animals"},
      {"measurement": "tape sensing/removal test (sensory function) outcome", "setting": "dorsal column (DC) axons; [7]", "result": "indistinguishable from sham-treated animals"},
      {"measurement": "axons regenerating 6 mm rostral to the lesion site", "setting": "dorsal column (DC) axons; GAP43+ axons, daily intrathecal injections", "result": 23.7, "unit": "%"},
      {"measurement": "ladder crossing test performance compared to vehicle or Chk1i", "setting": "dorsal column (DC) axons; after 2 days of treatment", "result": "significant improvements"},
      {"measurement": "tape sensing/removal test performance compared to vehicle or Chk1i", "setting": "dorsal column (DC) axons; after 2 days of treatment", "result": "significant improvements"},
      {"measurement": "time after treatment at which mean tape sensing/removal times are restored to normal", "setting": "dorsal column (DC) axons", "result": 3, "unit": "weeks"}
    ]},
    {"smiles": "COc1cccc(OCCCN)c1-c1cc(Nc2cnc(C#N)cn2)n[nH]1", "note": "[Prexasertib]", "values": [
      {"measurement": "mean CAP area at different stimulation intensities", "setting": "dorsal column (DC) axons; 6 weeks after DC injury", "result": "improved significantly"},
      {"measurement": "negative CAP amplitudes", "setting": "dorsal column (DC) axons; 6 weeks after DC injury", "result": "restored"},
      {"measurement": "time after treatment at which mean tape sensing/removal times are restored to normal", "setting": "dorsal column (DC) axons", "result": 3, "unit": "weeks"}
    ]}
  ]
}
